Key:
[1] = target: IL-23 stimulated phosphorylated STAT3 in PBMCs (Homo sapiens, UniProt Q5VWK5); assay: PBMC pSTAT3 assay; format: cell-based; conditions: PBMCs from healthy donors, IL-23 5 ng/mL, 30 minutes
[2] = Stability in simulated gastric fluid (SGF); format: in vitro ADME; conditions: pepsin, pH=2, 37° C., 20 μM peptide
[3] = Stability in human fecal homogenate; format: in vitro ADME; conditions: 20% human fecal homogenate, 37° C., 20 μM
[4] = Stability in cynomolgus monkey fecal homogenate; format: in vitro ADME; conditions: 20% cynomolgus monkey fecal homogenate, 37° C., 20 μM

Amino acid sequences for entries named in this document (tags omitted). Residues count along the entry.
UniProt Q5VWK5, 24-629 limits assumed: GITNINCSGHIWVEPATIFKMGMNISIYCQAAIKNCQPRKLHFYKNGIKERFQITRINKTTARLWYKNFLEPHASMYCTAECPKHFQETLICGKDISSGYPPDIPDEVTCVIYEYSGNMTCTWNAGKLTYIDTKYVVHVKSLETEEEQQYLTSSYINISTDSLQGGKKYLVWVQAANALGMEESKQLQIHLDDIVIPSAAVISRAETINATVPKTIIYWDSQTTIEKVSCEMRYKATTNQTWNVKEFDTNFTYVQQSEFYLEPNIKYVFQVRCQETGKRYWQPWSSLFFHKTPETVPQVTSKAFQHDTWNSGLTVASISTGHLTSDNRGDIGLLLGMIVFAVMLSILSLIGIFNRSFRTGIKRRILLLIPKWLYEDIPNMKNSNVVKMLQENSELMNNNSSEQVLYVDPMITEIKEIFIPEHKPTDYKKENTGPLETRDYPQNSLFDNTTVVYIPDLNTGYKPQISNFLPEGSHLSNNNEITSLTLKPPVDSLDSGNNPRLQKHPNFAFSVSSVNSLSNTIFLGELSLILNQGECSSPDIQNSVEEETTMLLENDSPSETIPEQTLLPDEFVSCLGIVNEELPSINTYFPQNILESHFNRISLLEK

Substance: Ac-[Pen]-N-T-[W(7-Me)]-[Lys(Ac)]-[Pen]-Phe[4-(2-aminoethoxy)]-[2-Nal]-[THP]-E-N-[3Pal]-[Sarc]-NH2 [Peptide 104]
- IC50 [1]: 5.15 pM
- SGF t½ [2]: >24.0 h
- t½: Human Feces anaerobic [3]: >24.0 h
- t½: Monkey Feces anaerobic [4]: >24.0 h

Substance: Ac-[Pen]-N-T-[W(7-Ph)]-[Lys(Ac)]-[Pen]-Phe[4-(2-aceylaminoethoxy)]-[2-Nal]-[THP]-[Lys(Ac)]-N-[3Pal]-[Sarc]-NH2 [Peptide 137]
- IC50 [1]: 12 pM
- SGF t½ [2]: >24.0 h
- t½: Human Feces anaerobic [3]: >24.0 h
- t½: Monkey Feces anaerobic [4]: >24.0 h

Substance: Ac-[Pen]-N-T-[W(7-Ph)]-[Lys(Ac)]-[Pen]-Phe[4-(2-aminoethoxy)]-[2-Nal]-[THP]-E-N-[3Pal]-[Sarc]-NH2 [Peptide 106]
- IC50 [1]: 8.7 pM
- SGF t½ [2]: >24.0 h
- t½: Human Feces anaerobic [3]: >24.0 h
- t½: Monkey Feces anaerobic [4]: >24.0 h

— patent US11845808B2, “Peptide inhibitors of interleukin-23 receptor and their use to treat inflammatory diseases” (Janssen Biotech, Inc., priority 2020, dated 2023)
